Patent US8852876B2, “Label free biosensors and cells” (Corning Incorporated, priority 2008, dated 2014)

Chains of the proteins cited; added tags and fusions are not shown. Lines headed by an entry give the natural chain unless they say otherwise; changes in a name come on top.
UniProt P08482: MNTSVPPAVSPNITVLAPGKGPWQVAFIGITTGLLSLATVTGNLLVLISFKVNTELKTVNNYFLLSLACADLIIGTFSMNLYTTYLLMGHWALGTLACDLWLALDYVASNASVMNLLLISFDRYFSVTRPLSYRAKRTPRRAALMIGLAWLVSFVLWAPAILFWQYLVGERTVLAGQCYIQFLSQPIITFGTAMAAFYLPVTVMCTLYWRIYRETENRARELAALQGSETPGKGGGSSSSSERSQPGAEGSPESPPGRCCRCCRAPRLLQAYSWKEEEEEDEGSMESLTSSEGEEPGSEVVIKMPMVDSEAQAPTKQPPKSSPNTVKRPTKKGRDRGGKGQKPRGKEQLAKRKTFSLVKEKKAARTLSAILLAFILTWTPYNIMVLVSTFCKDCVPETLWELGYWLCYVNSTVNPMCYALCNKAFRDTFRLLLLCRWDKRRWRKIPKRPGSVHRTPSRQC

Molecular target: T1, rat muscarinic receptor subtype 1 (Rattus norvegicus, UniProt P08482)
T1 construct: expressed in transfected cells; host or cells: CHO (M1 CHO)
Assay: GPCR agonist-induced mass redistribution in M1 CHO cells (optical LID)
Assay type: cell-based
Settings: 10 μM; compared with CHO cells

Clc1cccc(Cl)c1N=C1NCCN1 [clonidine]
Ligand-induced response in M1-CHO cells: induced mass redistribution signals
